Target: biotin-labeled soluble FcRn protein (UniProt P55899)
Assay: SPR; pH 6.0

The chains behind the UniProt entries cited, without tags or fusion partners. Residues count along the entry.
UniProt P55899, 24-297, chain 1 of 2: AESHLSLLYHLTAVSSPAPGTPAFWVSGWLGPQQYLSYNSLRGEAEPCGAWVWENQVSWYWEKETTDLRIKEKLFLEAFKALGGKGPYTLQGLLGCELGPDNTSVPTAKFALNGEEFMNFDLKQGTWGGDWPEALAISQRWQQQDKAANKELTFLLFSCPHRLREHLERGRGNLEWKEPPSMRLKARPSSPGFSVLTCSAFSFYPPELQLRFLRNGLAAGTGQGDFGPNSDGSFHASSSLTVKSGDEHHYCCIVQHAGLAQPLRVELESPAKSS

Kd: 77.3 nM
Substance: IgG1 Fc (from UniProt P01857 104-330)

From patent US20210206847A1
